# AlphaSeq binding of Ab-95 light chain variants to a spike HR2 peptide

Antigen: PDVDLGDISGINAS, a 14-residue peptide of the SARS-CoV-2 spike HR2 region.

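Variants in AAYL52 differ from the parent at up to three CDR positions; double and triple changes were sampled at random. The assay is AlphaSeq: two haploid yeast populations carry antibody and antigen on their surface. Binding brings cells together so that they mate, and sequencing counts the barcode pairs among the diploids. Each replicate has its own calibration line, from reference interactions of the BCL2 family. There are three technical replicates.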

The variants keep the heavy chain, the linker and the frameworks of Ab-95 (scFv order VH, three GGGGS repeats, VL).
VH: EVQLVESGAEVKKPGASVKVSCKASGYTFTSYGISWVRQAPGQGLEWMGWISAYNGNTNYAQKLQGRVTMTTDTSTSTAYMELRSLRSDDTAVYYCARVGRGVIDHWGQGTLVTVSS
VL: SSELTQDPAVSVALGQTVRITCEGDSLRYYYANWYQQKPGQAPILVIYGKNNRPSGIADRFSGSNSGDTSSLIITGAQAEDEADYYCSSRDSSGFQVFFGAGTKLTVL

The whole VL of each variant is written out. Scale: log10 of Kd in nM, estimated from mating counts; low values are strong binders. "nd" means that the variant was in the library but no mating with the target was seen in that replicate; the authors take this as a sign of poor binding, and no number exists. Empty control strains, which show no peptide, gave a signal in 28% of pairings with library AAYL52; the median was 3.91 and 95% of these signals were weaker than 2.90. No background was subtracted. Also given: how often the same scFv was detected with the empty control strains, with their mean in brackets. In this assay the parent's reference entry averaged 2.31; its copy inside this library read 2.25.

| VL | replicates, log10 nM | signal with controls |
|---|---|---|
| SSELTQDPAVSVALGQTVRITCEGDSLSYYYAMWYQQKPGQAPILVIYGKNNWPSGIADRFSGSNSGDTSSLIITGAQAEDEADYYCSSRDSSGFQVFFGAGTKLTVL | 3.19 nd nd | 2 of 9 (3.65) |
| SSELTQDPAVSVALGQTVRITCEGMSLRYYYADWYQQKPGQAPILVIYGKNNRPSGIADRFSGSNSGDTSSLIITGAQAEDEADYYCFSRDSSGFQVFFGAGTKLTVL | nd nd nd | 1 of 9 (3.40) |
| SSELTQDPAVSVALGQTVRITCEGDSLRYYLAIWYQQKPGQAPILVIYGKNNRQSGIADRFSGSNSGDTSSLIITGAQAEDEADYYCSSRDSSGFQVFFGAGTKLTVL | nd 5.73 3.95 | 2 of 9 (4.59) |
| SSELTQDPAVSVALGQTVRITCEARSLRYYYANWYQQKPGQAPILVIYGKNNRPSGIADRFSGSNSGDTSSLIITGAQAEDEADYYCSSRDSSGFPVFFGAGTKLTVL | 4.05 3.31 4.69 | 2 of 9 (4.18) |
| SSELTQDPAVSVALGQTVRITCEGDSLRYYYANWYQQKPGQAPILVIYGKRNRPSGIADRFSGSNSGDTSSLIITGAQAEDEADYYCFSRDSSGFQIFFGAGTKLTVL | nd nd nd | 4 of 9 (4.25) |
| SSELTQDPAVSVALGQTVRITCEGDSLRYYTANWYQQKPGQAPILVIYGKNNRPSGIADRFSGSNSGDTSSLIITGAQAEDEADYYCSSRDSSGMQIFFGAGTKLTVL | 2.34 2.76 2.18 | 3 of 9 (3.93) |
| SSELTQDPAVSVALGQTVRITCEGDSLRYYTANWYQQKPGQAPILVIYGKNNRPSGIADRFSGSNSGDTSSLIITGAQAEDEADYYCSSRDSSGWQDFFGAGTKLTVL | 2.04 2.47 2.71 | 1 of 9 (3.29) |
| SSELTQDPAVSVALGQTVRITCEGDKLRYYYANWYQQKPGQAPILVIYNKNNRPSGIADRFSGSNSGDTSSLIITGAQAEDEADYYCSSRDSSGFQQFFGAGTKLTVL | 3.78 3.20 3.35 | 4 of 9 (3.65) |
| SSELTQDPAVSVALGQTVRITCEGDSLRYYYHNWYQQKPGQAPILVIYGDNNRPSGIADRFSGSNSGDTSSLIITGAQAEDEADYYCSSRDSSGFQRFFGAGTKLTVL | 3.82 nd 2.83 | 2 of 9 (4.38) |
| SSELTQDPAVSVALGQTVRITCEGDSLRYYYANWYQQKPGQAPILVIYGKNNRPSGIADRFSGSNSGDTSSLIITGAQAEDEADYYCLSRDFLGFQVFFGAGTKLTVL | 2.46 1.87 2.32 | 1 of 9 (2.84) |
| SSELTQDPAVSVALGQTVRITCEGDSLRYYYANWYQQKPGQAPILVIYGKNTVPSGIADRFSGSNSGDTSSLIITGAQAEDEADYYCSSRDSSCFQVFFGAGTKLTVL | 1.78 1.98 1.84 | 2 of 9 (4.01) |
| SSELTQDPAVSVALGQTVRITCHGDSLRYYYANWYQQKPGQAPILVIYGKNPRPSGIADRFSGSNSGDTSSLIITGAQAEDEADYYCSSRRSSGFQVFFGAGTKLTVL | nd 3.71 nd | 4 of 9 (3.47) |
| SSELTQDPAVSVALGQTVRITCEGDSCRYYYINWYQQKPGQAPILVIYGKNNRPSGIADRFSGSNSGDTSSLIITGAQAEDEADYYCSSRDSSGFQVRFGAGTKLTVL | nd 5.66 3.06 | 3 of 9 (4.28) |
| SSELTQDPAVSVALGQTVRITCEGDKLRYYYANWYQQKPGQAPILVIYGTNNRPSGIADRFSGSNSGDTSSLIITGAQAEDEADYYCSSRDSSGFLVFFGAGTKLTVL | nd nd nd | 2 of 9 (3.33) |
| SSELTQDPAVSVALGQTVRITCEDWSLRYYYANWYQQKPGQAPILVIYGKNNRPSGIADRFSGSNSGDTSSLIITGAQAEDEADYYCSSRDSSGFQVFFGAGTKLTVL | nd nd 3.04 | 2 of 9 (4.33) |

Extract of 2 entries:

VL	replicates, log10 nM	signal with controls
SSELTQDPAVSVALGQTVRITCEGMSLRYYYADWYQQKPGQAPILVIYGKNNRPSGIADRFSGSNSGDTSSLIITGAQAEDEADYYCFSRDSSGFQVFFGAGTKLTVL	nd nd nd	1 of 9 (3.40)
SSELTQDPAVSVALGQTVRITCEGDSCRYYYINWYQQKPGQAPILVIYGKNNRPSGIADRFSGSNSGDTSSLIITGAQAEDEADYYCSSRDSSGFQVRFGAGTKLTVL	nd 5.66 3.06	3 of 9 (4.28)

Source: Engelhart et al. 2022 (doi:10.1038/s41597-022-01779-4), MIT Lincoln Laboratory and A-Alpha Bio; data file from the FLAb repository.